# Measured affinities in a library of Ab-91 heavy chain variants

Values reported by Engelhart et al. 2022, doi:10.1038/s41597-022-01779-4 (FLAb copy).

Target peptide (SARS-CoV-2 spike, HR2 region): PDVDLGDISGINAS

Each scFv is VL, three GGGGS repeats, VH, as in the parent Ab-91, and differs from it in the CDRs of the heavy chain only.
VL: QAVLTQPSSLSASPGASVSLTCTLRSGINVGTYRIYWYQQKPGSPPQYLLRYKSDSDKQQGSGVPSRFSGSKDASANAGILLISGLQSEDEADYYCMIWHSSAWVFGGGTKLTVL
VH: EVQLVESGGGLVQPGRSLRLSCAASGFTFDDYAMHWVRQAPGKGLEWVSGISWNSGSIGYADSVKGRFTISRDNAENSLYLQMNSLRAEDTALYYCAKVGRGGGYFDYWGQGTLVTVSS

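The parent was found by panning a naive human phage display library on the peptide. In library AAYL51, one, two or three CDR residues were substituted; doubles and triples were drawn at random. AlphaSeq pools MATa yeast showing the antibodies with MATalpha yeast showing the peptide. Binding brings cells together so that they mate, and sequencing counts the barcode pairs among the diploids. A regression on co-assayed BCL2-family reference pairs converts the normalised counts of each replicate to an apparent Kd. The assay was run in three technical replicates.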

Substitutions are numbered in sequence along the VH above, starting at 1 (not Kabat). Every variant below is changed at F106 of the VH (sequential numbering). Scale: log10 of Kd in nM, estimated from mating counts; low values are strong binders. Replicates are averaged; those with no signal do not enter the mean. An entry "no signal" has no value in the source: the pair was not observed among the diploids in any replicate. This suggests poor binding but is not conclusive. As a blank, each scFv also met three strains without target: over library AAYL51, 21% of these pairings were detected, typically at 4.54 and seldom below 3.26.

Variant F29Y/D62P/F106R gave 5.12 (3 of 3 replicates). Variant D30K/A61S/F106K showed no signal (0 of 3 replicates). Variant S57Y/K65Q/F106P showed no signal (0 of 3 replicates). For F27P/G50P/F106E, the assay gave 4.30 (1 of 3 replicates).